≈ marks a conversion by molar mass, not a printed value.
Test system: Bacteroides thetiotaomicron ATCC 29741
Test: MIC by CLSI broth microdilution, QC strain
Conditions: ATCC29741

CCC[C@@H]1C[C@@H](C(=O)N[C@@H]([C@H]2O[C@H](SC)[C@H](O)[C@@H](O)[C@H]2O)[C@H](C)Cl)N(C)C1 [CLI, clindamycin] was tested, and the MIC was 4 µg/mL (≈ 9.41 µM).
